The values below are quoted from earlier work in article PMC9570301.

Amino acid sequences for entries named in this document (tags omitted). Residues count along the entry.
UniProt Q15109, 23-116: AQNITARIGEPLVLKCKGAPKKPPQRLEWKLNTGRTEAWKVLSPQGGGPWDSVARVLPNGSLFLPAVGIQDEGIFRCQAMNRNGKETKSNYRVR
UniProt Q15109, 23-342: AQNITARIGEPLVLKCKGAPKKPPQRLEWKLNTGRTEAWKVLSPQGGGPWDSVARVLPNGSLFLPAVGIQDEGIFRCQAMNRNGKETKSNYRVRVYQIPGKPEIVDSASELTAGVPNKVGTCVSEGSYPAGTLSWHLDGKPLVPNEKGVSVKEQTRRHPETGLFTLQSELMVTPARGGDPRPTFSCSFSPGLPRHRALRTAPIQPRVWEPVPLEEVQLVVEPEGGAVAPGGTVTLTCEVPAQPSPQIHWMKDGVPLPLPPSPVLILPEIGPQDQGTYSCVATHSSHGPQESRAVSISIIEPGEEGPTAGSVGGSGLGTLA

As a reminder, the Kd is the concentration at which binding is half-saturated.

Data set [1] has as its target RAGE V-domain (Homo sapiens) (UniProt Q15109).
In data set [2] the target is RAGE (Homo sapiens) (UniProt Q15109).
The target of data set [3] is RAGE V-domain (Homo sapiens) (UniProt Q15109). This is another data set of the same source.

Where two headings read alike, the source gives them in different places.

Beta-amyloid 40 (from UniProt P05067): the dissociation constant (Kd) in data set [1] is 600 nM. As for Beta-amyloid 42 (from UniProt P05067), the Kd in data set [2] was 92 nM.

On to Beta-amyloid (from UniProt P05067), for which the Kd in data set [3] is 52.2 nM.
